Test results taken from ChEMBL document CHEMBL5210307, “Affinity Biochemical Literature for EUbOPEN Chemogenomics Library wave 3” (2023).

Molecular target: T1, Neutrophil elastase (Homo sapiens, UniProt P08246)
T1 sequence (P08246 whole entry): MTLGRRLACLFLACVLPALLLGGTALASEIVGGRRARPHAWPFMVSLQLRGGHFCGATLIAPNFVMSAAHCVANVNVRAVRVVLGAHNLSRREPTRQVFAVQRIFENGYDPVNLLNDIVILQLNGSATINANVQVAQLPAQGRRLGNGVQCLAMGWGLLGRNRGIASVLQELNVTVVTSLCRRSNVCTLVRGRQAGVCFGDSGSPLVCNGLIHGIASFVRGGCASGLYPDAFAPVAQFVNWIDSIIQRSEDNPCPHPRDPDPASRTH

- IC50: > 2000 nM
Compound: CC(=O)C1=C(C)N(c2cccc(C(F)(F)F)c2)C(=O)N[C@H]1c1ccc(C#N)nc1 [BAY-677]
